# Permeability data for macrocyclic peptides

Values of García-Pindado et al. 2018, doi:10.1002/bip.23112, as listed in CycPeptMPDB.

PAMPA measures passive passage through an artificial lipid membrane. Permeability is given as log10 of P in cm/s; higher (less negative) is more permeable.

structure (SMILES) | PAMPA (log10 cm/s)
NCCCC[C@@H]1NC(=O)[C@H](Cc2c[nH]c3cc(Br)ccc23)NC(=O)[C@H](CCCCN)NC(=O)[C@H]2CCCN2C(=O)[C@H](Cc2c[nH]c3cc(Br)ccc23)NC1=O | -5.34
NCCCC[C@@H]1NC(=O)[C@H](Cc2c[nH]c3c(Br)cccc23)NC(=O)[C@H](CCCCN)NC(=O)[C@H]2CCCN2C(=O)[C@H](Cc2c[nH]c3c(Br)cccc23)NC1=O | -5.89
NCCCC[C@@H]1NC(=O)[C@H](Cc2c[nH]c3ccccc23)NC(=O)[C@H](CCCCN)NC(=O)[C@H]2CCCN2C(=O)[C@H](Cc2c[nH]c3ccccc23)NC1=O | -5.57
NCCCC[C@@H]1NC(=O)[C@H](Cc2c[nH]c3ccc(Br)cc23)NC(=O)[C@H](CCCCN)NC(=O)[C@H]2CCCN2C(=O)[C@H](Cc2c[nH]c3ccc(Br)cc23)NC1=O | -5.33

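Lipid, pH, incubation time, direction and concentration are not recorded in the data file. The list need not hold all peptides of the study. Entries at the database's floor value (log10 P of -10) are not listed.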